Source: patent US20250129101A1, “Compound, Pharmaceutical Composition Comprising the Same and Method for Treating Cancer Using the Same” (NATIONAL TSING HUA UNIVERSITY, priority 2023, published 2025)

Tested on: 4T1 R4 cells
Experiment: Cell viability assay, 4T1 R4 cells
Format: cell-based, mouse
Details: 2 μM 7S9, Chou and Talalay method
Description: MCF-7, MDA-MB-231, MDA-MB-468, Hs578T, 4T1, and HeLa cell lines stably expressing H2B-mCherry and eGFP-tubulin (kindly provided by Dr. Anthony A. Hyman, Max-Planck-Institute for Molecular Cell Biology and Genetics, Dresden, Germany) were cultured in high-glucose Dulbecco's Modified Eagle Medium (DMEM). SK-BR-3 cells were cultured in McCoy's Modified 5a Medium. Hs578T cells were cultured in high-glucose DMEM supplemented with an additional 0.01 mg/mL bovine insulin. […] All mentioned media were supplemented with 10% fetal bovine serum (Gibco) and 1% Penicillin/Streptomycin (Corning), and cells were incubated at 37° C. in a humidified atmosphere containing 5% CO2. HEK293 cells were cultured in HE300 medium (GMEP incorporated, Japan) and maintained in suspension culture with 125 rpm and 8% CO2.
The cancer cells were cultured in a 96-well plate at a confluence of 1000-2000 cells/well with indicated drugs for specific days. When the time was up, the culture medium in the plate was aspirated and replaced with a prepared CellTiter-Glo reagent/DMEM mixture (1:1 mix of CellTiter-Glo reagent and serum-supplemented DMEM). After incubation for 10 min, the luminescence (proportional to the number of living cells) was measured with an ELISA plate reader to determine the cell viability.

## C/C(=C\c1csc(C)n1)[C@@H]1C[C@@H]2O[C@]2(C)CCC[C@H](C)[C@H](O)[C@@H](C)C(=O)C(C)(C)[C@@H](O)CC(=O)N1 [Ixabepilone, ixabepilone]
  CI (combination index), MTA with 7S9: 0.49
